Results: patent publication US20020048781A1, “Direct production of desacetylcephalosporin C” (published 2002)

How the values were obtained:
[1] = in fermentation broth, cited from earlier work
[2] = molecular target: T1, cephalosporin esterase (Rhodotorula toruloides, UniProt O42728); test: Esterase activity on cephalosporin substrates, monitored by HPLC
[3] = molecular target: T1, cephalosporin esterase; test: Effect of various enzyme modulators; conditions: 10 mM reagent, 15 minutes at 25° C., diluted 100 fold, assayed with p-nitrophenyl acetate
[4] = molecular target: T1, cephalosporin esterase; test: Esterase activity on p-nitrophenyl ester substrates, absorbance at 405 nm; conditions: 10.0 mM p-nitrophenyl esters, 100 mM potassium phosphate pH 6.5, 2% acetonitrile, 30° C.

Row | Compound | Effect on enzyme activity [3] | also measured
1 | CC(=O)OCC1=C(C(=O)O)N2C(=O)[C@@H](NC(=O)CCC[C@@H](N)C(=O)O)[C@H]2SC1 | – | Loss by non-enzymatic breakdown to compound X [1]: approximately 40%; Time to complete hydrolysis ([2]; 1.0% solution of cephalosporin C, 30° C., no side products by HPLC): ≤ 30 min; Vmax ([2]; hydrolysis of cephalosporin C, pH 6.5, 30° C.): 77.0 µmol/min/mg; Km ([2]; read-out: Km for hydrolysis of cephalosporin C, from double reciprocal plots, 100 mM potassium phosphate pH 6.5, 30° C.): 51.8 mM
2 | acetate | – | Inhibition of the reaction by reaction products ([2]; hydrolysis of cephalosporin C): did not inhibit the reaction to any appreciable extent
3 | NC(=O)CI | little or no effect | –
4 | EDTA | slight inhibition | –
5 | CCOC(=O)OC(=O)OCC | essentially inactivated the enzyme | –
6 | O=S(=O)(F)Cc1ccccc1 | inhibited the enzyme | –
7 | O=c1oc(Cl)c(Cl)c2ccccc12 | inhibited the enzyme | –
8 | desacetylcephalosporin C | – | Resistance to non-enzymatic breakdown ([1]; compared with cephalosporin C): far more resistant; Inhibition of the reaction by reaction products ([2]; hydrolysis of cephalosporin C): did not inhibit the reaction to any appreciable extent
9 | β-mercaptoethanol | slight activation | –
10 | CC(=O)Oc1ccc([N+](=O)[O-])cc1 | – | Relative Activity (%) [4]: 100%
11 | O[C@H](CS)[C@H](O)CS | slight activation | –
12 | CCN1C(=O)C=CC1=O | little or no effect | –
